Among the data in ChEMBL document CHEMBL1150001, “A rationale for the design and synthesis of m1 selective muscarinic agonists” (Bioorg Med Chem Lett, 1992) are Ratio values, retold here.

By UniProt entry, the sequences of proteins in these tests, tags left out. Where a name states a change or a piece, a line headed by the entry shows the natural chain unless it says otherwise.
UniProt P11229: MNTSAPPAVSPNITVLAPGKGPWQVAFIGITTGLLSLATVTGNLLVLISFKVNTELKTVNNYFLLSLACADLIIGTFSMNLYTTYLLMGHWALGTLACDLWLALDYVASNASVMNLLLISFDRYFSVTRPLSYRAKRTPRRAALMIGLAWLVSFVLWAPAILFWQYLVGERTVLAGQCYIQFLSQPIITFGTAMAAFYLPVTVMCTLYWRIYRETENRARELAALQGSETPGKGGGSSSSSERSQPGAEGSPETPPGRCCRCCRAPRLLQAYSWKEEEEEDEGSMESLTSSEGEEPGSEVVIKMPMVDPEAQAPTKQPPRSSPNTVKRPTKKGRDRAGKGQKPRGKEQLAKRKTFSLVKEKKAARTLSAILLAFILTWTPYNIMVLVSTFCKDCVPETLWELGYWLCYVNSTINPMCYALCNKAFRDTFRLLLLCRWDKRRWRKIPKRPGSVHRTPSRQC
UniProt P08172, whole entry, looked up: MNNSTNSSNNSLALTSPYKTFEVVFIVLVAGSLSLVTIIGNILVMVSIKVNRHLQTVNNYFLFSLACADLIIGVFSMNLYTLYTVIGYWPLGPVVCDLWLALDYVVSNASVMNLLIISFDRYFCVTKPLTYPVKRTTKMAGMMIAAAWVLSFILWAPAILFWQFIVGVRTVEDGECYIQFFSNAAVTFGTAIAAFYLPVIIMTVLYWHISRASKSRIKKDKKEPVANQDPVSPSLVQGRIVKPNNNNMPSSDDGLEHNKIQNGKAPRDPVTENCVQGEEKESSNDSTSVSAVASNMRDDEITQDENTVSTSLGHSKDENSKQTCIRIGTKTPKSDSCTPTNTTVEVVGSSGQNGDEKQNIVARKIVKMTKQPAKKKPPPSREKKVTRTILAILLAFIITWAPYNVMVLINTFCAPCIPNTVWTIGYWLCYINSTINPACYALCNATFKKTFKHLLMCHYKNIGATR

Active and inactive are the calls of the source. The rule behind the calls is not given here.

Experiment [1] in a line: Ratio of RQNB to RCMD was determined; Not active.
Experiment [2] addresses Muscarinic acetylcholine receptors; M1 & M2 (Homo sapiens) (UniProt P11229+P08172). Kind of experiment: Selectivity ratio for m1 over m2 muscarinic receptors was determined; Not active. The experiment is classed as protein assay.

As for `O/N=C1\CN2CCC1C2` (configuration not stated), the Ratio result in experiment [1] and in experiment [2] was “inactive” in each case.
